This note sets out measurements from patent publication US20060246071A1.

Sequences of proteins named here, by UniProt entry; tags and fusion partners are left off. A change or cut given only in a name is not applied to a line headed by its entry. A line that says so, or that is headed by a name, gives the form on record, which may keep a tag or linker. Residues count along the entry.
UniProt O15123, 19-496, stated change not applied: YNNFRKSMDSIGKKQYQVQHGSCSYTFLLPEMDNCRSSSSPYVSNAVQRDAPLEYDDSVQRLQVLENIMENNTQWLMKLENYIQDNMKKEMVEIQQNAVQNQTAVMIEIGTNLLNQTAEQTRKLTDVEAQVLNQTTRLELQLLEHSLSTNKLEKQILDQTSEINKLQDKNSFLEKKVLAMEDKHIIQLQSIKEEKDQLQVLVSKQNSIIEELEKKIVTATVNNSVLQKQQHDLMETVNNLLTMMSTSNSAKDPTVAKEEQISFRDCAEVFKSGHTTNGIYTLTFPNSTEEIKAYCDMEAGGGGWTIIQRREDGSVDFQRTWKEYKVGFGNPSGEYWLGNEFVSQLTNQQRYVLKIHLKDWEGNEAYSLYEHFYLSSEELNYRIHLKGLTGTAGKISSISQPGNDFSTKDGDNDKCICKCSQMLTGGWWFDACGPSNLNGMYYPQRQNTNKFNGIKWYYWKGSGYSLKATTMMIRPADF
UniProt O15123, other isoform, or with tags, fused parts or gaps: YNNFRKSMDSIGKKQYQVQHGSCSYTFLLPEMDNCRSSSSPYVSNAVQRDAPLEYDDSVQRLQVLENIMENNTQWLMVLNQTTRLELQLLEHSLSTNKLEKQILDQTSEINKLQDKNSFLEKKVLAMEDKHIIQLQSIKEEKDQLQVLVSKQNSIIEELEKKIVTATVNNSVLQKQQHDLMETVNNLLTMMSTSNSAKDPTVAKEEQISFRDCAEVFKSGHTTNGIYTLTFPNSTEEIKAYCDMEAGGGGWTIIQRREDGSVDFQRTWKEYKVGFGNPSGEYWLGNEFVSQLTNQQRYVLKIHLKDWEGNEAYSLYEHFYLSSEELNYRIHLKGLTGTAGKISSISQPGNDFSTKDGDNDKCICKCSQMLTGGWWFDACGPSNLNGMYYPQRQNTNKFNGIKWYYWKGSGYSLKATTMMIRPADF
UniProt O35608: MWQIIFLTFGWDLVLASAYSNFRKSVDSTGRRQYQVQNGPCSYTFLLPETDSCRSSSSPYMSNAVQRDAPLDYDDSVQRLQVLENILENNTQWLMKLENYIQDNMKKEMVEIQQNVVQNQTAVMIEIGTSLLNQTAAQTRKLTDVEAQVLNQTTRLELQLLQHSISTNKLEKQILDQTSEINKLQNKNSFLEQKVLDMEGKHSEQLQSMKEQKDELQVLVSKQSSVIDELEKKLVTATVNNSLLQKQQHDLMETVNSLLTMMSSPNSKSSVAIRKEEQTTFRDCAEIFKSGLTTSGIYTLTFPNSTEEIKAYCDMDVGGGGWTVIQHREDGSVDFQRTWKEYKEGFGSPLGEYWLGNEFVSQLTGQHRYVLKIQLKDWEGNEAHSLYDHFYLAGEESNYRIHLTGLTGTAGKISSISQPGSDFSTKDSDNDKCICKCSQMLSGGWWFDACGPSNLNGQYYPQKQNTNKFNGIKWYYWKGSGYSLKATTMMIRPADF

The target of assay [1] is human Ang-2 H375Q (human) (UniProt O15123). Nature of the assay: ELISA.
In assay [2] the target is human Ang-2 V345M (human) (UniProt O15123). Nature of the assay: ELISA.
In assay [3] the target is human Ang-2 mutated at positions 365 and 367 (human) (UniProt O15123). Nature of the assay: ELISA.
Assay [4] addresses Human Ang-1/2 BsmI chimera (human). Nature of the assay: ELISA.
Assay [5] has as its target recombinant human Angiopoietin-2 (human) (UniProt O15123). Nature of the assay: Biacore, mAb captured; kd held constant in fit.
Assay [6] deals with human Ang-2443 (human) (UniProt O15123). Nature of the assay: ELISA.
Assay [7] concerns the target Mouse/Human Ang-2 StuI chimera (mouse; human) (UniProt O35608). Nature of the assay: ELISA.
Assay [8] addresses recombinant human Angiopoietin-2 (human) (UniProt O15123). Nature of the assay: Biacore, mAb captured.

B1: mAb 5.101.1 (antibody, V domains shown)
VH: QVQLVQSGAEVKKPGASVKVSCKASGYTFTGYYMHWVPQAPGQGLEWMGWINPNSGGTNYAQKFQGRVTMTRDTSISTAYMELRRLRSDDTAVYYCARDGGSIPVSGHFDYWGQGTLVTVSS
VL: EIVMTQSPATLSVSPGERATLSCRASQSLISNLAWYQQKPGQAPRLLIFGASTRATGIPARFSGSGSGTEFTLTISSLQSEDFAVYYCHQYNNWWTFGQGTKVEIKR
Consider B1, for which the percent binding compared to human Ang-2 in assay [1], in assay [2], in assay [3] and in assay [4] was 100% throughout.

B2: mAb 5.14.1 (antibody, part only; not given: light chain, V domains shown, part only)
VH: QVQLVQSGAEVKKPGASVKVSCKASGYTFTGYYMYWVRQAPGQGLEWMGWINPNSGGTNYAQKFQGRVTMTRDTSISTAYMELSRLRSDDTAVYYCARDQGITVAGPFDYWGQGSLVTVSSA
Take B2: the koff in assay [5] was 1e-05 s⁻¹. For the same molecule, the percent binding compared to human Ang-2 in assay [6], in assay [1], in assay [2], in assay [7], in assay [3] and in assay [4] was 100% throughout. Besides, the Kd in assay [8] amounted to 49 pM. In addition, in assay [8], the kon was 200000 M⁻¹ s⁻¹.
